Here are results for 101 molecules from PubChem BioAssay AID743279 (National Center for Advancing Translational Sciences (NCATS), 2014).

The entries are a selection whose mix differs from that of the whole data set. Inconclusive results are not listed. Activity calls are given as the source filed them. Cut-off read from the data, not from the text of the source: active = activity change below about -50%; inconclusive = mostly about -30% to -49%; inactive = weaker than that.
% is set by controls: 0 for no effect and ±100 for the full control effect.

The assay in a line: qHTS for Inhibitors of Inflammasome Signaling: IL-1-beta AlphaLISA Primary Screen. The note with it: THP-1 LPS/ATP IL-1B secretion, 16 h, at 57.5 µM, stronger effect = lower value. An outline of the steps:
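Secreted IL-1B measured by AlphaLISA bead assay after 16 h compound exposure of THP-1 cells; compounds (final up to 57.5 uM) added 1 h before LPS (250 ng/mL) and ATP (1.25 mM) stimulation; lower signal means less secretion.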
(In qHTS, concentration-response curves come from the screen itself.)
For the molecule `COc1ccc(C2=NCC(CBr)S2)cc1` (stereo unspecified), the activity change was inactive: 9.65%. In the case of `Cc1ccc(NP(=O)(Oc2ccccc2)Oc2ccccc2)nc1` it was inactive: 6.16%. For `O=[N+]([O-])c1cc([N+](=O)[O-])c(CCNc2ccccc2)c([N+](=O)[O-])c1` the value was inactive: -15.3%.

For the molecule `CCc1nc2c(n1)c1c(non1O)c1c2no[n+]1[O-]`, the activity change was inactive: -19.2%. For `CC(=O)N1C2C3N(C(C)=O)C1C1N(C(C)=O)C(C(N1C(C)=O)N3C(C)=O)N2C(C)=O` the value was inactive: 8.2%; for `O=[N+]([O-])c1cccc2n[nH]nc12`, inactive: 26.1%. Regarding `CCN(/C(=N/P(=O)(N1CCOCC1)N1CCOCC1)N1CCOCC1)c1ccc(OC)cc1`, the activity change is inactive: 29.7%. In the case of `Nc1ccc([As](=O)(O)c2ccc(N)cc2)cc1`, the activity change was inactive: 5.15%.

Take `C[N+]1=C2C=CC=CC=C2SC12C([N+](=O)[O-])=CC([N+](=O)[O-])=C[C-]2[N+](=O)[O-]` (stereo unspecified): the activity change was active: -102%.

In the case of `c1cc(-c2nn[nH]n2)ccc1-c1nn[nH]n1`, the activity change was inactive: 2.46%.

With `CC1CCN(C(=O)Oc2c(Cl)cc(Cl)c3cccnc23)CC1`, the activity change was inactive: -16.6%. For the molecule `CC(C)=N/N=C(\N)N[N+](=O)[O-]`, the activity change is inactive: 21%. On to `CC(C)c1nc(Nc2ccccc2)n(P(=O)(N(C)C)N(C)C)n1`, for which the activity change is inactive: 3.33%.

`CN(C)C(=O)OCCc1n(C)cc[n+]1C`: the activity change was inactive: 7.64%. For `COP1(=S)c2c(C)nn(CCC#N)c2N=C(c2ccc(F)cc2)N1C` (stereo unspecified) the value was inactive: -5.85%. For `COC(=O)C1(C)COP(=O)(N2CCCC2)OC1` (stereo unspecified) the value was inactive: 23.2%; for `O=C(O)C(=O)c1ccc(N(CCCl)CCCl)cc1`, inactive: -21.1%; for `O=C(COc1ccccc1)OC1CN2CCC1CC2` (stereo unspecified), inactive: 21.4%. In the case of `O=C(Nc1ccncc1[N+](=O)[O-])c1ccc([N+](=O)[O-])cc1[N+](=O)[O-]` it was inactive: 36.8%; in that of `O=C(OC1CN2CCC1CC2)c1cccc([N+](=O)[O-])c1` (stereo unspecified), inactive: 25%.

For `CSc1ccc(Nc2c([N+](=O)[O-])cc([N+](=O)[O-])cc2[N+](=O)[O-])cc1`, the activity change was active: -63.8%. For `CCOC(=O)c1ccc(NC(=O)C(C)(CCl)SC)cc1` (stereo unspecified) the value was inactive: 6.48%; for `CCC(C)N(CC(C)C)C(=S)SC(NC(C)=O)C(Cl)(Cl)Cl` (stereo unspecified), inactive: 47.8%; for `O=C(O)C(O)c1ccc(N(CCCl)CCCl)cc1` (stereo unspecified), inactive: -3.5%.

`CCOC(=O)Nc1ccc([As](=O)(O)O)c(O)c1`: the activity change is inactive: -7.16%.

With `CC1CCNP(=O)(N(CCCl)CCCl)O1` (stereo unspecified), the activity change was inactive: 6.43%.

For the molecule `COP(=O)(OC)N1CC1c1ccccc1` (stereo unspecified), the activity change was inactive: 8.65%. In the case of `CCCCOc1ccc(C(=O)NCC2(N3CCCCC3)CCCCC2)cc1OC` it was inactive: 0.954%.

For `Cc1cc(SC(NC(=O)c2ccccc2)C(Cl)(Cl)Cl)nc(C(C)C)n1` (stereo unspecified), the activity change is inactive: -9.3%. In the case of `CCOC(=O)Nc1cccc([As](=O)(O)O)c1` it was inactive: 19.7%; in that of `O=P(Nc1ccccn1)(c1cccc2ccccc12)c1cccc2ccccc12`, inactive: -1.39%. For `O=[N+]([O-])c1ccc(Nc2ccc(Oc3ccc([N+](=O)[O-])cc3[N+](=O)[O-])cc2)c([N+](=O)[O-])c1` the value was inactive: -16.7%. In the case of `O=[As](O)(c1ccc(O)cc1)c1ccccc1O` it was inactive: -2.15%; in that of `C[As](=O)(O)c1cccc(C(=O)O)c1`, inactive: 0%; in that of `COc1cc(C(=O)NCC2(N3CCOCC3)CCCCC2)ccc1OCC(C)C`, inactive: -3.03%. For `O=[N+]([O-])c1ccc(-c2cc([N+](=O)[O-])c(O)c([N+](=O)[O-])c2)cc1`, the activity change is inactive: -9.65%. In the case of `Cc1ccc(OP(=O)(Nc2ccc([N+](=O)[O-])cn2)Oc2ccc(C)cc2)cc1` it was inactive: 9.87%; in that of `[N-]=[N+]=NC1CCCCC1NC(=O)c1cc([N+](=O)[O-])cc([N+](=O)[O-])c1` (stereo unspecified), inactive: 23.1%.

As for `Cc1ccc2nc3c(c(C)c2c1)CC(C(Cl)Cl)S3` (stereo unspecified), the activity change was inactive: -5.35%. In the case of `ClCCSc1nnc(-c2cccnc2)o1` it was inactive: -20.8%. For `CC(C)c1ccc(OP(=O)(Nc2ccccn2)Oc2ccccc2F)cc1` (stereo unspecified) the value was inactive: 28.6%. As for `COC(=O)C1(C)COP(=O)(N2CCCCCC2)OC1` (stereo unspecified), the activity change is inactive: 6.21%. For `CCN(CC)C(=S)SC(NC=O)C(Cl)(Cl)Cl` (stereo unspecified) the value was inactive: 15.2%; for `O=C(OC1CN2CCC1CC2)c1cccc2[nH]cnc12` (stereo unspecified), inactive: -15%. For `CC(C)NC(=O)NP(=O)(Oc1ccccc1)Oc1ccccc1` the value was inactive: -6.27%; for `O=[N+]([O-])c1cc([N+](=O)[O-])c(-c2ccn[nH]2)s1`, active: -69.1%; for `Cc1c2c(nc3ccccc13)SC(C(Cl)Cl)C2` (stereo unspecified), inactive: 6.01%. In the case of `O=C(OC1CN2CCC1CC2)C12CC3CC(CC(C3)C1)C2` (stereo unspecified) it was inactive: -14.2%; in that of `Cc1cc(=O)[nH]c(N[N+](=O)[O-])n1`, inactive: -12.5%; in that of `O=P1(N(CCCl)CCCl)OCCCN1CCCl` (stereo unspecified), inactive: 8.11%.

On to `O=P1(N(CCCl)CCCl)Nc2ccccc2N1`, for which the activity change was inactive: 13.9%. In the case of `COc1ccc2nc(NP(=O)(c3ccccc3)c3ccccc3)sc2c1`, the activity change is inactive: -12.6%. For `COc1cc(I)ccc1[As](=O)(O)O` the value was active: -86.4%; for `O=[N+]([O-])c1cc(Oc2ccc([N+](=O)[O-])cc2C(F)(F)F)cc([N+](=O)[O-])c1`, inactive: -29.6%. Turning to `COc1ccc(N/C(=N/P(=O)(N2CCOCC2)N2CCOCC2)N2CCOCC2)cc1`, the activity change was inactive: 12%.

Consider `O=C(OC1CN2CCC1CC2)c1ccc(Cl)cc1` (stereo unspecified), for which the activity change was inactive: -8.39%. In the case of `O=[As](O)(O)c1cccnc1` it was inactive: -12%; in that of `CS(=O)(=O)c1ccc(Cl)c(NC(=O)COC(=O)C(O)(c2ccccc2)c2ccccc2)c1`, inactive: 0%. In the case of `O=[As](O)(c1cccc(O)c1)c1cccc(O)c1` it was inactive: 10.2%; in that of `Cc1cccc(OCC(=O)OC2CN3CCC2CC3)c1` (stereo unspecified), inactive: -2.95%; in that of `Cc1ccc(NCCc2c([N+](=O)[O-])cc([N+](=O)[O-])cc2[N+](=O)[O-])cc1`, inactive: -3.66%. For `Nc1cccc2c([As](=O)(O)O)cccc12` the value was inactive: 0%.

For `CCCOP(=S)(Nc1nc(N)cc(=O)[nH]1)OCCC`, the activity change is inactive: 0.228%. In the case of `COc1cc(C2NCCC3(OCCO3)C2(C)C)cc(OC)c1OC` (stereo unspecified) it was inactive: -11.5%; in that of `CCOP(=O)(Nc1cccc2ccccc12)OCC`, inactive: 8.47%. In the case of `CCOP1(=S)c2c(C)nn(CCC#N)c2N=C(c2ccccc2F)N1C` (stereo unspecified) it was inactive: -3.75%.

In the case of `O=P(Nc1nccs1)(c1ccccc1)c1nc2ccccc2s1` (stereo unspecified), the activity change was active: -73%. `O=P(Nc1nccs1)(Oc1ccccc1)Oc1ccccc1`: the activity change was inactive: 3.76%. As to `CS(=O)(=O)c1cc([N+](=O)[O-])c2no[n+]([O-])c2c1`, the activity change is inactive: 10.9%. For `O=C(O)COc1ccc([As](=O)(O)O)cc1[N+](=O)[O-]` the value was inactive: 14.5%. In the case of `Nc1ccccc1[As](=O)(O)c1ccccc1` it was inactive: -2.24%; in that of `NC(=O)Nc1ccc([As](=O)(O)O)cc1`, inactive: 13.2%; in that of `N#CCCN(C(=O)COC(=O)C(O)(c1ccccc1)c1ccccc1)c1ccc(F)cc1`, inactive: -3.35%. In the case of `CCOP1(=S)c2c(C)nn(CCC#N)c2N=C(c2ccc(F)cc2)N1C` (stereo unspecified) it was inactive: -5.94%. On to `CN(C(=O)Cc1ccccc1)[C@@H]1CC[C@]2(CCCO2)C[C@H]1N1CCCC1`, for which the activity change was inactive: -1.61%. `CN(C)C(=O)c1cc([N+](=O)[O-])cc2c1-c1c(cc([N+](=O)[O-])cc1[N+](=O)[O-])C2=O`: the activity change is active: -96.9%. In the case of `O=[N+]([O-])c1ccc2c(c1)nnn2O` it was inactive: -3.7%. In the case of `CN(C(=O)Cc1ccc(Cl)c(Cl)c1)[C@H]1CC[C@@]2(CCCO2)C[C@@H]1N1CCCC1` it was inactive: -6.65%; in that of `Cc1nn(-c2ccccc2)c2c1P(=O)(N1CCOCC1)N(C)C(c1ccccc1)=N2` (stereo unspecified), inactive: -3.36%; in that of `Cc1ccc(C(=O)OC2CN3CCC2CC3)cc1` (stereo unspecified), inactive: 17.4%. For `CC1CCC(C(C)C)C(OP(=O)(Nc2ccccn2)c2ccccc2)C1` (stereo unspecified) the value was active: -89%; for `CN(C)C1(CNC(=O)c2ccc(S(C)(=O)=O)cc2)CCCCC1`, inactive: -10.5%. As to `O=C(/C=C/c1ccccc1)OC1CN2CCC1CC2` (stereo unspecified), the activity change is inactive: -22%. For `CCCC1OP(=O)(Nc2ccccc2)OCC1CC` (stereo unspecified) the value was inactive: 0.218%; for `Cc1ccc(S(=O)(=O)N(CCCN)CCCc2c(C)nc(N)[nH]c2=O)cc1`, inactive: -6.75%; for `O=P1(Nc2ncccn2)COc2ccccc2OC1`, inactive: 16.2%. In the case of `Nc1cccc([As](=O)(O)c2ccccc2)c1` it was inactive: 15%; in that of `NS(=O)(=O)c1cccc(NC(=O)COC(=O)C(O)(c2ccccc2)c2ccccc2)c1`, inactive: 20.6%; in that of `Cc1ccc(OCC(=O)OC2CN3CCC2CC3)cc1` (stereo unspecified), inactive: 7.09%. In the case of `O=[As](O)(c1cccs1)c1cccs1` it was inactive: 5.2%; in that of `CCC1=CC2Cc3nc4ccc(Cl)cc4c(N)c3C(C1)C2` (stereo unspecified), active: -90%; in that of `O=P1(Nc2ccccn2)COc2ccccc2OC1`, inactive: -9.66%.

Regarding `CCOP(=O)(NC(=NC(C)c1ccccc1)NC(C)c1ccccc1)OCC` (stereo unspecified), the activity change is inactive: -17.6%. For `CN(CCCl)Cc1cc(Cl)c(NC2=NCCN2)c(Cl)c1` the value was inactive: -17.1%; for `CCOP(=O)(Nc1ccc(C)cn1)OCC`, inactive: 8.31%. As for `Clc1n[nH]nc1-c1nn[nH][15n]1`, the activity change is inactive: 22.6%.

As to `O=P1(N(CCCl)CCCl)NCCC(C(F)(F)F)O1` (stereo unspecified), the activity change is inactive: -27.5%. In the case of `CC(C)(C)C(=O)NC(Sc1ncccn1)C(Cl)(Cl)Cl` (stereo unspecified) it was inactive: -15.4%; in that of `COc1ccccc1CNC(=O)COC(=O)C(O)(c1ccccc1)c1ccccc1`, inactive: -0.766%; in that of `CC(C)/C=N\N=C(\N)N[N+](=O)[O-]`, inactive: -5.28%. For `CC1(CBr)Cn2c(nc3ccccc3c2=O)S1` (stereo unspecified) the value was inactive: 7.38%.
